Earlier results in patent publication US20100135992A1, “Prolongation of Survival of an Allograft by Inhibiting Complement Activity” (Alexion Pharmaceuticals, Inc., priority 2006, published 2010).

Test system: terminal complement activity
Conditions: cited from earlier work
[1] = PNH patients, 900 mg/patient once every 12-14 days

For “eculizumab: whole anti-human complement C5 monoclonal antibody that prevents C5 cleavage”, the “duration of block of the effects of complement” value (PNH patients, 900 mg dose) is listed as “approximately two weeks”, the “symptoms of PNH” value [1] is listed as “greatly inhibited” and the terminal complement activity [1] is listed as “completely and consistently block”. For the same substance, the ill effects (intravenous administration to humans in a study of PNH) was “without ill effects”.
